The text below walks through data of PubChem BioAssay AID1777 (Sanford-Burnham Center for Chemical Genomics, 2009).

Amino acid sequences for entries named in this document (tags omitted).
UniProt P41145, whole entry: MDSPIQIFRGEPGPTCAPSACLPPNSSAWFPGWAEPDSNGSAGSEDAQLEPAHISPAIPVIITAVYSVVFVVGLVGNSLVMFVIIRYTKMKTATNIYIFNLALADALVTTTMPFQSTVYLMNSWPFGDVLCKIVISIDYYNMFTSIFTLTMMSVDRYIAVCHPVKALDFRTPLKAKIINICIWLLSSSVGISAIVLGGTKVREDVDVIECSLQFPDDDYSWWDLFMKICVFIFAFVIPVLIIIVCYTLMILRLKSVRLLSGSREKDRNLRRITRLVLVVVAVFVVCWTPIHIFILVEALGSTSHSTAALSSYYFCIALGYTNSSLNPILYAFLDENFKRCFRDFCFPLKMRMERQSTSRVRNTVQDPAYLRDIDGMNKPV

Only a part is listed here, and it is no random draw. Results with a measured potency or affinity are listed apart. Calls of active or inactive are those of the source. Rule as the data show it: active = activation above about 50% (passing the limit was not always enough); inactive = the rest.

For this experiment, the target named is Kappa-type opioid receptor (Homo sapiens) (UniProt P41145). Description: kappa opioid receptor activators – cell-based, luminescence, uHTS, primary screen (AID 1777). To be noted: KOR beta-arrestin recruitment, at 10 µM, hits give high values. (Arrestin recruitment assays detect the binding of arrestin to an activated receptor.)
`O=C(NCC1(N2CCCCC2)CCCCC1)c1cccc(C(F)(F)F)c1`: the activation was inactive: -4.5%. For `COc1ccc(NC2CCN(C(=O)OC(C)(C)C)CC2)cc1` the value was inactive: -5.1%. With `CN1CCN(CCOC(=O)C(O)(c2ccccc2)c2ccccc2)CC1` the figure was inactive: 4.8%; with `O=C(NCC1(N2CCOCC2)CCCCC1)c1cc(=O)[nH]c2ccccc12`, inactive: 1.4%; with `COc1cc(C(=O)NCC2(N3CCCCC3)CCCCC2)ccc1OC(F)F`, inactive: -7.1%.

Consider `O=C(NCC1(N2CCCCC2)CCCCC1)c1ccc(OC(F)F)cc1`, for which the activation was inactive: 2.5%. With `O=C(NCC1(N2CCCCC2)CCCCC1)c1cccc([N+](=O)[O-])c1` the figure was inactive: -2.9%. For `N#CC1(Nc2ccccc2)CCN(CCc2ccccc2)CC1` the value was inactive: -1.4%; for `CCN1CCC(Nc2ccc(Cl)cc2)CC1`, inactive: 3%. With `CCCOc1ccc(C(=O)NCC2(N(C)C)CCCCC2)cc1OC` the figure was inactive: -1.8%; with `CN(C)c1cccc(C(=O)NCC2(N3CCCCC3)CCCCC2)c1`, inactive: 0%. As to `CC(C)c1ccc(NC2CCN(C(=O)OC(C)(C)C)CC2)cc1`, the activation is inactive: -0.8%. With `COc1cc(OC)c(C(=O)NCC2(N(C)C)CCCCC2)cc1OC`, the activation is inactive: -3.4%. With `O=C(NCC1(N2CCOCC2)CCCCC1)c1cc2ccccc2o1` the figure was inactive: -0.9%; with `Cc1cc(C)cc(N(C(=O)c2ccccc2)C2CCN(C(=O)OC(C)(C)C)CC2)c1`, inactive: -1.6%; with `CCOC(=O)N1CCC(Nc2ccc(OC)cc2)CC1`, inactive: -6.4%. For `N#CC1(Nc2ccccc2)CCN(Cc2ccccc2)CC1` the value was inactive: -1.9%; for `O=C(OC1CN2CCC1CC2)C1c2ccccc2Oc2ccccc21` (stereo not drawn), inactive: -1.9%. For `O=C(NCC1(N2CCCCC2)CCCCC1)c1ccc(=O)[nH]c1`, the activation was inactive: 0.9%. For `COc1ccc(C(=O)NCC2(N3CCCCC3)CCCCC2)c(OC)c1OC` the value was inactive: 2.6%. As for `CC(C)(C)OC(=O)N1CCC(N(C(=O)c2ccccc2)c2ccc(F)cc2)CC1`, the activation was inactive: -3.7%. As to `COc1ccc(C(=O)NCC2(N3CCCCC3)CCCCC2)cc1`, the activation was inactive: -0.3%. With `CSc1ccccc1C(=O)NCC1(N2CCCCC2)CCCCC1` the figure was inactive: 0.3%; with `Cc1ccc(OCC(C)C)c(CN(CCCl)CCCl)c1`, inactive: 6%; with `CCOC(=O)N1CCC(Nc2cccc(C)c2)CC1`, inactive: 3.8%. As for `COc1cc(C(=O)NCC2(N(C)C)CCCCC2)ccc1OC(F)F`, the activation was inactive: -3.9%. Regarding `CCOc1ccc(C)cc1CN(CCCl)CCCl`, the activation was inactive: 2.2%. For `CCOC(=O)N1CCC(Nc2ccc(F)cc2)CC1` the value was inactive: 5.5%.
